Key:
[1] = molecular target: human plasma kallikrein (Homo sapiens (Human), UniProt P03952); experiment: Determination of the plasma kallikrein activity (fluorogenic peptide substrate H-Pro-Phe-Arg-AMC); type: biochemical; conditions: Table B; plasma kallikrein inhibition, 30 min at 22° C., fluorescence
Experimental: (§1) To determine the plasma kallikrein inhibition of the substances according to the invention, a biochemical test system is used which utilizes the reaction of a peptidic plasma kallikrein substrate to determine the enzymatic activity of human plasma kallikrein. Here, plasma kallikrein cleaves from the peptic plasma kallikrein substrate the C-terminal aminomethylcoumarin (AMC), the fluorescence of which is measured. The determinations are carried out in microtitre plates.
1 μl of the diluted substance solutions is placed into each of the wells of white microtitre plates from Greiner (384 wells). 20 μl of assay buffer (50 mM Tris/HCl pH 7.4; 100 mM sodium chloride solution; 5 mM of calcium chloride solution; 0.1% of bovine serum albumin) and 20 μl of plasma kallikrein from Kordia (0.6 nM in assay buffer) are then added successively. After 15 min of incubation, the enzyme reaction is started by addition of 20 μl of the substrate H-Pro-Phe-Arg-AMC dissolved in assay buffer (10 μM in assay buffer) from Bachem, the mixture is incubated at room temperature (22° C.) for 30 min and fluorescence is then measured (excitation: 360 nm, emission: 460 nm). The measured emissions of the test batches with test substance are compared to those of control batches without test substance (only dimethyl sulphoxide instead of test substance in dimethyl sulphoxide), and IC50 values are calculated from the concentration/activity relationships.

Chains of the proteins cited; added tags and fusions are not shown. Residues count along the entry.
UniProt P03952, 20-390 partner: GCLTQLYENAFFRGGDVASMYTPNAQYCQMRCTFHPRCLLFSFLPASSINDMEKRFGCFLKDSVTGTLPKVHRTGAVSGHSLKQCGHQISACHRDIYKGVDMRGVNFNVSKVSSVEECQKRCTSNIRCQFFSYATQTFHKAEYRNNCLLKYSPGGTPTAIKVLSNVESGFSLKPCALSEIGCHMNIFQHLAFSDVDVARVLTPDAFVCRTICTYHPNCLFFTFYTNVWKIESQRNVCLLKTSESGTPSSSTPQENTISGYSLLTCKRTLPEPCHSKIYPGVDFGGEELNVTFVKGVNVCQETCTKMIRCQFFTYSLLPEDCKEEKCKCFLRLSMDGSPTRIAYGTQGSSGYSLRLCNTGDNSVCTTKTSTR
UniProt P03952, 391-638: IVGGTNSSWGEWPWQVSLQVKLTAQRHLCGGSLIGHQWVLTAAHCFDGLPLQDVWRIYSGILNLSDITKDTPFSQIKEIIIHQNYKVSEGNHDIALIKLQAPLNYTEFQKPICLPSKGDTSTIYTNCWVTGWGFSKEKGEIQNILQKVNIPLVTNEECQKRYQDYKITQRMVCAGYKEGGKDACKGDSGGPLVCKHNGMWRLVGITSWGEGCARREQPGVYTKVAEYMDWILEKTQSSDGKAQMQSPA
UniProt P03951, 19-387 partner: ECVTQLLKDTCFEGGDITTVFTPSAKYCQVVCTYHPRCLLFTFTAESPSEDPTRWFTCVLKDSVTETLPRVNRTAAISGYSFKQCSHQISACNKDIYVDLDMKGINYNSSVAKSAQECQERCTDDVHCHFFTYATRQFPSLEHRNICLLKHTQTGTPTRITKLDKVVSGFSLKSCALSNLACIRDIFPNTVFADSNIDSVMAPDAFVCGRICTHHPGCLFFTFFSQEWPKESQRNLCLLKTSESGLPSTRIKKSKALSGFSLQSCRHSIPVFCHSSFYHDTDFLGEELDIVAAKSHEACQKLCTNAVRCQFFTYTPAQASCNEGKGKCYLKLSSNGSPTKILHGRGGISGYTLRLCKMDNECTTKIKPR
UniProt P03951, 388-625: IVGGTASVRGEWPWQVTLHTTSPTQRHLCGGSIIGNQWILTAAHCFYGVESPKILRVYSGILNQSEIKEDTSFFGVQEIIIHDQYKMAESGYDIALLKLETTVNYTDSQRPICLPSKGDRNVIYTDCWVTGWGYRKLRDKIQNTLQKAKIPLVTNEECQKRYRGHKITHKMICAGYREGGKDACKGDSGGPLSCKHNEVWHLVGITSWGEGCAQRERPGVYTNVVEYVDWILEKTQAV

[2] = molecular target: human factor XIa (Homo sapiens (Human), UniProt P03951); experiment: Measurement of FXIa inhibition (fluorogenic peptide substrate Boc-Glu(OBzl)-Ala-Arg-AMC); type: biochemical; conditions: Table A, 30 min at 22° C., fluorescence
Experimental: as §1, with “The factor XIa” for “To determine the plasma kallikrein”, “invention is determined using” for “invention,”, “system” for “system is used”, “factor XIa” for “plasma kallikrein”, “factor XIa.” for “plasma kallikrein.”
1 μl of the diluted substance solutions is placed into each of the wells of white microtitre plates from Greiner (384 wells). […] After […] of incubation, the enzyme reaction is started by addition of 20 μl of the factor XIa substrate Boc-Glu(OBzl)-Ala-Arg-AMC dissolved in assay buffer (10 μM in assay buffer) from Bachem, the mixture is incubated at room temperature (22° C.) for 30 min and fluorescence is then measured (excitation: 360 nm, emission: 460 nm). The measured emissions of the test batches with test substance are compared to those of control batches without test substance (only dimethyl sulphoxide instead of test substance in dimethyl sulphoxide), and IC50 values are calculated from the concentration/activity relationships.

Row | Structure (SMILES) | IC50 [1] [µM] | IC50 [2] [µM]
1 | COc1cn(C(Cc2ccn(C)n2)C(=O)Nc2ccc(C(N)=O)nc2)c(=O)cc1-c1cc(Cl)ccc1C#N (racemic) [Example 19, 5-({2-[4-(5-Chloro-2-cyanophenyl)-5-methoxy-2-oxopyridin-1(2H)-yl]-3-(1-methyl-1H-pyrazol-3-yl)propanoyl}amino)pyridine-2-carboxamide (racemate)] | 0.0043 | 
2 | CNC(=O)c1ccc(NC(=O)C(CCOC)n2cc(OC)c(-c3cc(Cl)ccc3C#N)cc2=O)cn1 (racemic) [Example 26, 5-({2-[4-(5-Chloro-2-cyanophenyl)-5-methoxy-2-oxopyridin-1(2H)-yl]-4-methoxybutanoyl}amino)-N-methylpyridine-2-carboxamide (racemate)] | 0.0069 | 
3 | CNC(=O)c1ccc(NC(=O)C(Cc2ccn(C)n2)n2cc(OC)c(-c3cc(C)ccc3C#N)cc2=O)cn1 (racemic) [Example 29, 5-({2-[4-(2-Cyano-5-methylphenyl)-5-methoxy-2-oxopyridin-1(2H)-yl]-3-(1-methyl-1H-pyrazol-3-yl)propanoyl}amino)-N-methylpyridine-2-carboxamide (racemate)] | 0.0082 | 
4 | COc1cn(C(Cc2ccn(C)n2)C(=O)Nc2ccc(C(N)=O)nc2)c(=O)cc1-c1cc(C)ccc1C#N (racemic) [Example 30, 5-({2-[4-(2-Cyano-5-methylphenyl)-5-methoxy-2-oxopyridin-1(2H)-yl]-3-(1-methyl-1H-pyrazol-3-yl)propanoyl}amino)pyridine-2-carboxamide (racemate)] | 0.017 | 0.02
5 | COc1cn(C(Cc2ccn(C)n2)C(=O)Nc2cnc(C(N)=O)c(F)c2)c(=O)cc1-c1cc(Cl)ccc1C#N (racemic) [Example 31, 5-({2-[4-(5-Chloro-2-cyanophenyl)-5-methoxy-2-oxopyridin-1(2H)-yl]-3-(1-methyl-1H-pyrazol-3-yl)propanoyl}amino)-3-fluoropyridine-2-carboxamide (racemate)] | 0.061 | 
6 | COc1cn(C(Cc2cnco2)C(=O)Nc2cnc(C(N)=O)c(F)c2)c(=O)cc1-c1cc(Cl)ccc1C#N (racemic) [Example 37, 5-({2-[4-(5-Chloro-2-cyanophenyl)-5-methoxy-2-oxopyridin-1(2H)-yl]-3-(1,3-oxazol-5-yl)propanoyl}amino)-3-fluoropyridine-2-carboxamide (racemate)] | 0.014 | 
7 | CNC(=O)c1ccc(NC(=O)C(CC2=NOCC2)n2cc(OC)c(-c3cc(Cl)ccc3C#N)cc2=O)cn1 (racemic) [Example 42, 5-({2-[4-(5-Chloro-2-cyanophenyl)-5-methoxy-2-oxopyridin-1(2H)-yl]-3-(4,5-dihydro-1,2-oxazol-3-yl)propanoyl}amino)-N-methylpyridine-2-carboxamide (racemate)] | 0.03 | 
8 | CNC(=O)c1ccc(NC(=O)C(CCOC)n2cc(OC)c(-c3cc(NC)ccc3C#N)cc2=O)cn1 (racemic) [Example 45, 5-[(2-{4-[2-Cyano-5-(methylamino)phenyl]-5-methoxy-2-oxopyridin-1(2H)-yl}-4-methoxybutanoyl)amino]-N-methylpyridine-2-carboxamide (racemate)] | 0.36 | 
9 | COCCC(C(=O)Nc1ccc(C(N)=O)nc1)n1cc(OC)c(-c2cc(Cl)c(F)cc2C#N)cc1=O (racemic) [Example 47, 5-({2-[4-(5-Chloro-2-cyano-4-fluorophenyl)-5-methoxy-2-oxopyridin-1(2H)-yl]-4-methoxybutanoyl}amino)pyridine-2-carboxamide (racemate)] | 0.18 | 0.22
10 | COc1cn(C(Cc2ccncc2)C(=O)Nc2ccc(C(N)=O)nc2)c(=O)cc1-c1cc(Cl)ccc1C#N (single isomer, unassigned; enantiomer 1) [Example 44, 5-({2-[4-(5-Chloro-2-cyanophenyl)-5-methoxy-2-oxopyridin-1(2H)-yl]-3-(pyridin-4-yl)propanoyl}amino)pyridine-2-carboxamide (enantiomer 1)] | 0.76 | 
11 | CNC(=O)c1ccc(NC(=O)C(CCOC)n2cc(OC)c(-c3cc(Cl)ccc3C#N)cc2=O)cn1 (single isomer, unassigned; enantiomer 2) [Example 27, 5-({2-[4-(5-Chloro-2-cyanophenyl)-5-methoxy-2-oxopyridin-1(2H)-yl]-4-methoxybutanoyl}amino)-N-methylpyridine-2-carboxamide (enantiomer 2)] | 0.0062 | 

More lines, in order of falling IC50 [1], values ahead:

Row | IC50 [1] [µM] | IC50 [2] [µM] | Structure (SMILES)
12 | 0.065 | 0.055 | CNC(=O)c1ccc(NC(=O)C(Cc2ccn(C)n2)n2cc(C)c(-c3cc(Cl)ccc3C#N)cc2=O)cn1 (racemic) [Example 43, 5-({2-[4-(5-Chloro-2-cyanophenyl)-5-methyl-2-oxopyridin-1(2H)-yl]-3-(1-methyl-1H-pyrazol-3-yl)propanoyl}amino)-N-methylpyridine-2-carboxamide (racemate)]
13 | 0.022 | 0.02 | COc1cn(C(Cc2ccccn2)C(=O)Nc2ccc(C(N)=O)nc2)c(=O)cc1-c1cc(Cl)ccc1C#N (stereo not drawn) [Example 6]
14 | 0.014 |  | COc1cn(C(Cc2ncco2)C(=O)Nc2ccc(C(N)=O)nc2)c(=O)cc1-c1cc(Cl)ccc1C#N (racemic) [Example 36, 5-({2-[4-(5-Chloro-2-cyanophenyl)-5-methoxy-2-oxopyridin-1(2H)-yl]-3-(1,3-oxazol-2-yl)propanoyl}amino)pyridine-2-carboxamide (racemate)]
15 | 0.008 | 0.009 | COc1cn(C(Cc2ccncc2)C(=O)Nc2ccc(C(N)=O)nc2)c(=O)cc1-c1cc(Cl)ccc1C#N (stereo not drawn) [Example 9]
16 | 0.004 |  | COc1cn(C(Cc2ccncc2)C(=O)Nc2ccc(C(N)=O)nc2)c(=O)cc1-c1cc(Cl)ccc1C#N (single isomer, unassigned; enantiomer 2) [Example 21, 5-({2-[4-(5-Chloro-2-cyanophenyl)-5-methoxy-2-oxopyridin-1(2H)-yl]-3-(pyridin-4-yl)propanoyl}amino)pyridine-2-carboxamide (enantiomer 2)]
